One block for each binder: values may come before it.
How the values were obtained:
Conditions in all cases: remark: other sources report otherwise
HLA-A*0202 (human) [1] = test: competition with 125I probe peptide for purified HLA
HLA-A*0202 (human) [2] = test: competition for purified HLA vs 125I-labelled probe peptide, gel filtration
HLA-B*5101 (human) = test: competition vs 125I-labelled probe peptide, purified HLA, gel filtration
HLA-A*0201 (human) [3] = test: competition with 125I probe peptide for purified HLA
HLA-A*0201 (human) [4] = test: competition for purified HLA vs 125I-labelled probe peptide, gel filtration
HLA-A*0301 (human) = test: inhibition of 125I probe peptide binding to purified HLA
HLA-A*3301 (human) = test: as above

Binder: HLYQGCQVV [Her2/neu.48 …]
IC50 (HLA-A*0202 (human) [1]): 307 nM

Binder: HLYQGCQVV [Her2/neu.48]
IC50 (HLA-A*0202 (human) [2]): 307 nM

Binder: CLTSTVQLV [Her2/neu.789]
IC50 (HLA-A*0201 (human) [4]): 208 nM

Binder: VVFGILIKRR [Her2/neu.669 (AA 10)]
IC50 (HLA-A*0301 (human)): 3670 nM | IC50 (HLA-A*3301 (human)): 193 nM

Further lines, results first:

IC50 (HLA-B*5101 (human)): 423 nM
Binder: PPSPREGPLPI [Her2/neu.1149.I11]

IC50 (HLA-A*0201 (human) [3]): 208 nM
Binder: CLTSTVQLV [Her2/neu.789 …]

Source: patent US20040018971A1
